Results taken from patent publication US6500827B2, “Drug combinations” (Pharmacia & Upjohn Company, priority 1998, dated 2002).

Columns and labels:
[1] = different animal models
Description: Leonard-BE, “Noradrenaline in basic models of depression.” European-Neuropsychopharnacol. April 1997; 7 Suppl 1: S11-6; discussion S71-3.

[2] = in vivo

With `CCOc1ccccc1OC(c1ccccc1)C1CNCCO1` (stereo not drawn) [reboxetine] the anti-cholinergic activity [1] was “only weak or no”, the antireserpine activity [2] was “potent” and the “desensitization of υ-adrenergic receptor function” value (υ-adrenergic receptor) was “ability to desensitize”.
